Assay results as given in US20250270190A1, “KIT INHIBITORS” (BLUEPRINT MEDICINES CORPORATION, priority 2022, published 2025).

Chains of the proteins cited; added tags and fusions are not shown. Residues count along the entry.
UniProt P10721, 26-976 V560G/V654A limits assumed: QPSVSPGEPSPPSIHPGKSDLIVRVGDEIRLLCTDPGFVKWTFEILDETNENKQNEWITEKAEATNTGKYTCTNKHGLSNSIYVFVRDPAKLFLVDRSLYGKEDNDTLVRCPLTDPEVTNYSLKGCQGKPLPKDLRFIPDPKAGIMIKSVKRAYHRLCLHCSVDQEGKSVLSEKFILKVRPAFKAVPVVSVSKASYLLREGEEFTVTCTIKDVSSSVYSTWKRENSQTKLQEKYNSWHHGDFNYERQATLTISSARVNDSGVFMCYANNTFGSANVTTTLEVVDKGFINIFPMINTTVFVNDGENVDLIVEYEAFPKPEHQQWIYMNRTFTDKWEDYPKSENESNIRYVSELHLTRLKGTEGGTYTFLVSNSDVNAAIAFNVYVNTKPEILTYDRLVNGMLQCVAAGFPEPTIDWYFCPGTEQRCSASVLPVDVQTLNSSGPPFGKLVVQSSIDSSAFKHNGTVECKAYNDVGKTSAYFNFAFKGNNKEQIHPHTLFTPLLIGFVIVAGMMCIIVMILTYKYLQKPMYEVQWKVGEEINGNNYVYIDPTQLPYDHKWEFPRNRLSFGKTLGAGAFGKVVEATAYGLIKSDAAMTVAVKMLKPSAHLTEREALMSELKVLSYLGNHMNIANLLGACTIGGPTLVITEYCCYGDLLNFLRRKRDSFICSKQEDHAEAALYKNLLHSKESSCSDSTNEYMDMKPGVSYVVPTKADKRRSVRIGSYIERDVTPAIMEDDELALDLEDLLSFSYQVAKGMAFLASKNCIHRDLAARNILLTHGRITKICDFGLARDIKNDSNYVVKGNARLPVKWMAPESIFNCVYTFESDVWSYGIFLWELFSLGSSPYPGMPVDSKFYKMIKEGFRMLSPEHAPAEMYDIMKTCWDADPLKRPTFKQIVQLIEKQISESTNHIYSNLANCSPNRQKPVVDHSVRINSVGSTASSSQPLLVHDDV

Target: c-kit autophosphorylation (Phospho c-Kit Tyr721) in HMC 1.1 (exon 11/13) cells, V654A (Homo sapiens, UniProt P10721, V560G/V654A)
Assay: pKIT Meso Scale Discovery (MSD) assay, inhibition of autophosphorylation of KIT, HMC1.1_V654A
Format: cell-based
Settings: read-out: Code (IC50 for inhibition of autophosphorylation of KIT, pKIT MSD assay), Table 1, cell line not named for Table 1, b1056 names pKIT HMC1.1_V654A, tested form: TFA

Compound COc1cc(Nc2cc(N)nc(C(F)F)n2)ncc1-c1cnn(CC(C)(C)N)c1 has an IC50 of 10 to 40 nM.
